Where two headings read alike, the source gives them in different places.

Series [1] is described as follows: Maximum tolerated dose (MTD) study of PEGylated conjugates of cabazitaxel in athymic mice. The format is in vivo, female athymic nu/nu mice. Conditions: qw x 3, iv; for Treatment-Related Deaths: N=5; for Estimated MTD, cabazitaxel equivalents: athymic nu/nu mice, guide value, not a definitive MTD. Here is the method: Purpose. This study was performed to determine appropriate doses of each compound for tumor xenograft studies. In those studies, it is desirable to administer the maximum dose of test compound that will not cause excessive loss of body weight. In general, loss of ˜15% of the initial body weight of the animal is typically the maximum desired.
Experimental procedure. MTD for 4-arm-conjugated to cabazitaxel were determined in female athymic nu/nu mice using standard methods. Briefly, 8-12 week old mice were administered test compounds or cabazitaxel intravenously at one week intervals for a total of three doses per mouse (qw×3, iv) as shown in Tables 1 and 2. For all PEG-conjugated test compounds, the doses of both the conjugate and released cabazitaxel, calculated from the cabazitaxel content of the respective conjugate, are shown. […] PEG-cabazitaxel conjugates were prepared in D5W. […] Mice were observed daily for clinical signs and body weights were recorded on days 1-5 and then biweekly until the end of study. All procedures were conducted in compliance with IACUC requirements. Any individual animal with a single observation of greater than 30% body weight loss or three consecutive measurements of greater than 25% body weight loss was euthanized. For any group with two measurements of mean body weight loss of greater than 20%, dosing was stopped and recovery was allowed. Within a group with greater than 20% mean weight loss, individual animals greater than 30% body weight loss were euthanized. Compound dosing was terminated for any group in which mean weight loss exceeded 20% or >10% of animals died. Moribund animals were euthanized and all animals were euthanized at end of study (day 30).
Results. The results for the study MTD “20K Conjugates” are summarized in Table 3 and FIG. 1 while the results for the MTD “30K and 40K Conjugates” study are summarized Table 4 and FIG. 2. […] It should be noted that this is not meant to be a definitive MTD, but is simply a guide to select an appropriate dose for conducting tumor xenograft studies using this administration route and schedule. Note too, that these MTD are given as cabazitaxel equivalents. The actual dose of each conjugate must be corrected for the wt % of cabazitaxel in that specific conjugate.

The subject of series [2] is H460 non-small cell lung cancer (NSCLC) implants. As to conditions: for BW Nadir (Lowest Mean Body Weight for Group) / BW Nadir (d), day of nadir / Deaths: iv, qwk x 3; for Deaths: N=10. Here is the method: Purpose. Studies were conducted to assess the growth inhibitory effects of PEGylated-conjugates of cabazitaxel on H460 non-small cell lung cancer (NSCLC) implants in athymic nu/nu mice.
Experimental plan. These studies were conducted using routine methods and materials that are familiar to those skilled in the art. Briefly, 8 to 12 week old female nu/nu mice were injected subcutaneously in the flank with 1×10^7 H460 tumor cells in 0.2 mL sterile buffer. […] Animals received three intravenous doses of test article at one week intervals beginning on day 1. Cabazitaxel solutions were prepared in D5W containing 5% Tween 80:10% ethanol. PEG-cabazitaxel conjugates were prepared in D5W. The administration volume for all test articles was 10 mL/kg. The test doses were selected to represent the MTD and ½ the MTD for each test compound. The tables list the actual mg/kg for each test article and the corresponding cabazitaxel equivalent calculated based on the weight-percent cabazitaxel content for each PEGylated conjugate.
Animals were weighed on days 1-5, 7, 9, 11, 13 then biweekly until the end of the study. Tumor sizes were measured using calipers biweekly throughout the study and tumor volumes were calculated using the formula for an ellipsoid sphere: L×W^2/2=mm^3, where L and W are the major axis dimensions of the tumor in mm. Additional parameters that were monitored were the number of non-specific deaths, number of partial and complete tumor regressions, number of tumor-free survivors, and the time required for individual animals' tumors to reach 2000 mm^3. The median time for a tumor to reach 2000 mm^3 in the treatment groups (T) and control group (C) was used to calculate of the overall delay in the growth of the median tumor (TGD). Animals were monitored individually until reaching the experimental endpoint: tumor size of 2000 mm^3 or 45 days, whichever came first. […] When the study endpoint was reached, the animals were euthanized.

Setting [3] is: MTD study 20K conjugates, 7.5 mg/kg cabazitaxel eq.
Where [4] appears, read: MTD study 20K conjugates, 15 mg/kg cabazitaxel eq.
Where [5] appears, read: MTD study 20K conjugates, 30 mg/kg cabazitaxel eq.
Where [6] appears, read: 20K conjugate xenograft study, 10 mg/kg cabazitaxel eq.
[7] abbreviates: 20K conjugate xenograft study, 20 mg/kg cabazitaxel eq.
[8] abbreviates: MTD study 30K and 40K conjugates, 7.5 mg/kg cabazitaxel eq.
The mark [9] stands for this setting: MTD study 30K and 40K conjugates, 15 mg/kg cabazitaxel eq.
Where [10] appears, read: MTD study 30K and 40K conjugates, 30 mg/kg cabazitaxel eq.
The mark [11] stands for this setting: 30K and 40K conjugate xenograft study, 15 mg/kg cabazitaxel eq.
[12] abbreviates: 30K and 40K conjugate xenograft study, 30 mg/kg cabazitaxel eq.
Setting [13] is: 20K conjugate xenograft study, 12.5 mg/kg cabazitaxel eq.
[14] abbreviates: 20K conjugate xenograft study, 25 mg/kg cabazitaxel eq.
The mark [15] stands for this setting: 30K and 40K conjugate xenograft study, 6 mg/kg cabazitaxel eq.
The mark [16] stands for this setting: 30K and 40K conjugate xenograft study, 12 mg/kg cabazitaxel eq.
[17] abbreviates: 30K and 40K conjugate xenograft study, 10 mg/kg cabazitaxel eq.
[18] abbreviates: 30K and 40K conjugate xenograft study, 20 mg/kg cabazitaxel eq.

As for “4-ARM-PEG20K-Alaninate-Linked Cabazitaxel Conjugate [4-arm-PEG20K-CM-alanine-Cabazitaxel]”, in series [1] (setting [3]), the “BW Nadir” value is on record as −4.6%, the “BW Nadir (day)” value was 13 days, the “Mean Day of Death” value worked out at 15 and the “Treatment-Related Deaths” value is reported as 1. Also, in series [1] (setting [4]), the “BW Nadir” value is −4.4%, the “BW Nadir (day)” value is 3 days and the “Treatment-Related Deaths” value amounted to 0. Moreover, in series [1] (setting [5]), the “BW Nadir” value was −22.1%, the “BW Nadir (day)” value stood at 23 days and the “Treatment-Related Deaths” value came out at 0. Further, the “Estimated MTD, cabazitaxel equivalents” value in series [1] was 20 mg/kg. Also, in series [2] (setting [6]), the “BW Nadir (Lowest Mean Body Weight for Group)” value is recorded as −6.6%; the “BW Nadir (d), day of nadir” value is “(22) d”; the Deaths came out at 0. Further, in series [2] (setting [7]), the “BW Nadir (Lowest Mean Body Weight for Group)” value was −13.0%; the “BW Nadir (d), day of nadir” value is given as “(17) d”; the Deaths worked out at 0.
In the case of “4-ARM-PEG40K-Glycinate-Linked Cabazitaxel Conjugate [4-arm-PEG40K-CM-glycine-Cabazitaxel]”, in series [1] (setting [8]), the “BW Nadir” value is −3.8%, the “BW Nadir (day)” value turned out to be 2 days and the “Treatment-Related Deaths” value amounted to 0. Moreover, in series [1] (setting [9]), the “BW Nadir” value was −6.7%, the “BW Nadir (day)” value came out at 5 days and the “Treatment-Related Deaths” value stood at 0. In series [1] (setting [10]), the “BW Nadir” value is reported as −6.2%, the “BW Nadir (day)” value worked out at 21 days and the “Treatment-Related Deaths” value came to 0. The “Estimated MTD, cabazitaxel equivalents” value in series [1] is reported as 12 mg/kg. In series [2] (setting [11]), the “BW Nadir (Lowest Mean Body Weight for Group)” value is −6.4%; the “BW Nadir (d), day of nadir” value is recorded as “(22) d”; the Deaths was found to be 0. In addition, in series [2] (setting [12]), the “BW Nadir (Lowest Mean Body Weight for Group)” value was −15.3%; the “BW Nadir (d), day of nadir” value is recorded as “(22) d”; the Deaths was 0.
Take “4-ARM-PEG20K-Acetate-Linked Cabazitaxel [4-arm-PEG20K-CM-Cabazitaxel]”: in series [2] (setting [13]), the “BW Nadir (Lowest Mean Body Weight for Group)” value is −15.9% and the “BW Nadir (d), day of nadir” value is “(22) d”. Further, in series [2] (setting [14]), the “BW Nadir (Lowest Mean Body Weight for Group)” value is −10.1% and the “BW Nadir (d), day of nadir” value is given as “(22) d”.
Consider “4-ARM-PEG30K-Alaninate-Linked Cabazitaxel Conjugate [4-arm-PEG30K-CM-alanine-Cabazitaxel]”, for which, in series [1] (setting [8]), the “BW Nadir” value is −2.7%, the “BW Nadir (day)” value was determined as 2 days and the “Treatment-Related Deaths” value was 0. Moreover, in series [1] (setting [9]), the “BW Nadir” value is on record as −15.2%, the “BW Nadir (day)” value is 21 days and the “Treatment-Related Deaths” value came to 0. In addition, in series [1] (setting [10]), the “BW Nadir” value was −30.9%, the “BW Nadir (day)” value turned out to be 21 days and the “Treatment-Related Deaths” value stood at 0. The “Estimated MTD, cabazitaxel equivalents” value in series [1] was 30 mg/kg. Also, in series [2] (setting [15]), the “BW Nadir (Lowest Mean Body Weight for Group)” value is listed as −3.3%; the “BW Nadir (d), day of nadir” value was “(18) d”; the Deaths amounted to 0. Moreover, in series [2] (setting [16]), the “BW Nadir (Lowest Mean Body Weight for Group)” value is −8.5%; the “BW Nadir (d), day of nadir” value is “(22) d”; the Deaths worked out at 0.
For the substance “4-ARM-PEG20K-Glycinate-Linked Cabazitaxel Conjugate [4-arm-PEG20K-CM-glycine-Cabazitaxel]”, in series [1] (setting [3]), the “BW Nadir” value is listed as −0.7%, the “BW Nadir (day)” value came out at 3 days and the “Treatment-Related Deaths” value is recorded as 0. The “Treatment-Related Deaths” value in series [1] (setting [4]) turned out to be 0. In series [1] (setting [5]), the “BW Nadir” value is given as −15.6%, the “BW Nadir (day)” value was 23 days and the “Treatment-Related Deaths” value amounted to 0. In series [1], the “Estimated MTD, cabazitaxel equivalents” value is on record as 20 mg/kg. In addition, in series [2] (setting [6]), the “BW Nadir (Lowest Mean Body Weight for Group)” value was −9.2%; the “BW Nadir (d), day of nadir” value was “(22) d”; the Deaths was found to be 0. In addition, in series [2] (setting [7]), the “BW Nadir (Lowest Mean Body Weight for Group)” value was −9.5%; the “BW Nadir (d), day of nadir” value was “(22) d”; the Deaths is given as 0.
In the case of “4-ARM-PEG40K-Alaninate-Linked Cabazitaxel Conjugate [4-arm-PEG40K-CM-alanine-Cabazitaxel]”, in series [1] (setting [8]), the “Treatment-Related Deaths” value is listed as 0. Further, in series [1] (setting [9]), the “BW Nadir” value was −4.4%, the “BW Nadir (day)” value was 21 days and the “Treatment-Related Deaths” value is recorded as 0. In addition, in series [1] (setting [10]), the “BW Nadir” value is listed as −25.9%, the “BW Nadir (day)” value was found to be 21 days, the “Mean Day of Death” value was 23 and the “Treatment-Related Deaths” value is 1. The “Estimated MTD, cabazitaxel equivalents” value in series [1] is 20 mg/kg. In addition, in series [2] (setting [17]), the “BW Nadir (Lowest Mean Body Weight for Group)” value was −9.5%; the “BW Nadir (d), day of nadir” value is on record as “(25) d”; the Deaths amounted to 0. Further, in series [2] (setting [18]), the “BW Nadir (Lowest Mean Body Weight for Group)” value was −17.2%; the “BW Nadir (d), day of nadir” value is given as “(18) d”; the Deaths was 0.
As for “4-ARM-PEG20K-Butanoate-Linked Cabazitaxel Conjugate [4-arm-PEG20K-BA-Cabazitaxel]”, in series [2] (setting [13]), the “BW Nadir (Lowest Mean Body Weight for Group)” value is given as −4.3% and the “BW Nadir (d), day of nadir” value is on record as “(22) d”. Also, in series [2] (20K conjugate xenograft study, 25 mg/kg), the “Weight loss (in words)” value was “slightly higher than expected weight loss”. Further, in series [2] (setting [14]), the “BW Nadir (Lowest Mean Body Weight for Group)” value is on record as −19.6% and the “BW Nadir (d), day of nadir” value was “(22) d”.

(Values after patent US10894087B2, “Multi-arm polymeric prodrug conjugates of cabazitaxel-based compounds” (Nektar Therapeutics, priority 2010, dated 2021).)
